Test results published in patent publication US20210254056A1, “IDENTIFICATION AND TARGETED MODULATION OF GENE SIGNALING NETWORKS” (CAMP4 THERAPEUTICS CORPORATION, priority 2017, published 2021).

B1: BMP2 (protein, UniProt P12643 283-396, looked up)
Bone morphogenetic protein 2: QAKHKQRKRLKSSCKRHPLYVDFSDVGWNDWIVAPPGYHAFYCHGECPFPLADHLNSTNHAIVQTLVNSVNSKIPKACCVPTELSAISMLYLDENEKVVLKNYQDMVVEGCGCR

Key:
[1] = tested on: CI-CB-CD34+ cells; assay: Biological activity of maximal compound dosages in CI-CB-CD34+ cells; type: cell-based, human; conditions: 10 μM dose, DMSO = 1.00
Protocol: (§1) The stock for each compound was at 10 mM and were diluted to 100 μM with RMPI+GCMSF (2% DMSO). Cells were collected and resuspended in 8 mL of RPMI+GMCSF at a concentration of 1×10^6 cells/mL. For the TF1 cells, at each well of a 6-well plate were added 1 mL of cells, 300 μL of 100 μM compound dilution, and 1.7 mL of RMPI+GCMSF+1.5% DMSO (1% final DMSO concentration in 3 mL total). One mL of the CI-CB-CD34+ cells, 300 μL of 100 μM compound dilution, and 700 μL of RMPI+GCMSF ([…]) were added to each well of a 6-well plate.
(§2) Compound dilutions were performed as described in Example 1. […] In a 6-well format, there were 1 million cells/well=1 million cells/ml=1000 cells/pl. […].

[2] = tested on: TF1 cells; assay: Biological activity of maximal compound dosages in TF1 cells; type: cell-based; conditions: 10 μM dose, DMSO = 1.00
Protocol: as §1, §2

[3] = tested on: primary human hepatocytes; assay: RNA-seq of primary human hepatocytes treated with 39 small molecules (pilot and validation); conditions: for significant modulation of gene expression: RNA-seq, p-value≤0.05, primary human hepatocytes, the modulated genes are listed in the block
[4] = tested on: primary human hepatocytes
[5] = tested on: hepatocytes; conditions: log 2 fold change in CYP2C19 gene expression, RNA-seq

Molecule | Fold changes in cell viability [1] | Fold changes in cell viability [2] | significant modulation of gene expression [3] | also measured
Cc1ccc(-c2cn3c4c(sc3n2)CCCC4)cc1 [Cyclic-pifithrin alpha, Cyclic Pifithrin-a] | 1.17 | 1.12 |  | 
CN(C)C(=N)N=C(N)N [MT-117, Metformin] |  |  | significantly (p-value≤0.05) modulate | Log2 fold changes in gene expression: CYP2C19 [4]: −0.03; Log2 fold changes in gene expression: CYP3A4 [4]: 0
CO[C@H]1/C=C/O[C@@]2(C)Oc3c(C)c(O)c4c(O)c(c(/C=N/N5CCN(C)CC5)c(O)c4c3C2=O)NC(=O)/C(C)=C\C=C\[C@H](C)[C@H](O)[C@@H](C)[C@@H](O)[C@@H](C)[C@H](OC(C)=O)[C@@H]1C [MT-901, Rifampicin] |  |  |  | Cuffdiff log2fc, CYP2C19 [5]: 1.75
Cc1ccc(C(=O)Cn2c3c(sc2=N)CCCC3)cc1 [Pifithrin alpha, Pifithrin-α] | 1.08 | 1.23 |  | 
B1 |  |  | significantly (p-value≤0.05) modulate | Number (#) of genes having significantly changed expression ([3]; pilot RNA-seq study of Example 2, significance: FPKM≥0.5, log 2(fold change)≥1, q-value ≤0.05): 5
